The list shows a part of the results, in another mix than the full data. Results filed as inconclusive are left out. Where a call stands in place of a potency, no number is given. Active and inactive are the calls of the source. Calls come from the whole dose curve.
What follows are molecules tested against D(2) dopamine receptor (Homo sapiens) (UniProt P14416) (assay: Dopamine D2 receptor (DRD2) small molecule agonists, cell-based qHTS assay (AID 1963594; note: nearly all actives have a fitted effect of over 35% in size)). Details: HEK293-DRD2 cAMP HTRF, agonist mode, 30 min; series mostly up to 92.4 µM.
Excerpt: National Center for Advancing Translational Sciences [NCATS]
Division of Preclinical Innovation [DPI]
U.S. Environmental Protection Agency [EPA]
National Institutes of Environmental Health Sciences [NIEHS]
National Toxicology Program [NTP]
U.S. Food and Drug Administration [FDA]
DRD2 is the D2 subtype of the dopamine receptor, which is coupled to Gi subtype of G protein-coupled receptor. This G protein-coupled receptor inhibits adenylyl cyclase activity. The DRD2-HEK293 cell line stably expressing D2 dopamine receptor can be used for screening agonists and antagonists of interactions between D2 and its ligands. The Hek293-DRD2 cAMP assay is based on HTRF technology. It measures changes of cAMP accumulation in response to Gi coupled GPCR activation or inhibition.
Tox21 Assay Protocol Summary:
DRD2-Hek293 cells were dispensed at 600 cells/3uL/well in 1536-well white plates using a Multidrop Dispenser. After the assay plates were incubated at a 37 C/5% CO2 incubator for 24 h, 1 uL of Ro20-1724 at final concentration of 0.1 mM was transferred to the assay plate by a Flying Reagent Dispenser. Following Ro20-1724 addition, 23 nL of compound dissolved in DMSO, positive controls or DMSO only was added to the assay plates via Wako pintool station. The assay plates were incubated at room temperature for 10 min. Next, 1 uL of NKH477 at 200nM was added into the plates. After the assay plates were incubated at room temperature for an additional 30 min, 2.5 ul/well of cAMP-d2 and 2.5 ul/well of anti-cAMP-cryptate were added respectively into the assay plates using a Flying Reagent Dispenser. The plates were incubated at room temperature for 1 h. The fluorescence intensity in the plates was measured at 340 nm excitation and 665 & 620 nm emission by an Envision plate reader.
Potency is the fitted concentration of half-maximal effect.

Amino acid sequences for entries named in this document (tags omitted).
UniProt P14416, whole entry, looked up: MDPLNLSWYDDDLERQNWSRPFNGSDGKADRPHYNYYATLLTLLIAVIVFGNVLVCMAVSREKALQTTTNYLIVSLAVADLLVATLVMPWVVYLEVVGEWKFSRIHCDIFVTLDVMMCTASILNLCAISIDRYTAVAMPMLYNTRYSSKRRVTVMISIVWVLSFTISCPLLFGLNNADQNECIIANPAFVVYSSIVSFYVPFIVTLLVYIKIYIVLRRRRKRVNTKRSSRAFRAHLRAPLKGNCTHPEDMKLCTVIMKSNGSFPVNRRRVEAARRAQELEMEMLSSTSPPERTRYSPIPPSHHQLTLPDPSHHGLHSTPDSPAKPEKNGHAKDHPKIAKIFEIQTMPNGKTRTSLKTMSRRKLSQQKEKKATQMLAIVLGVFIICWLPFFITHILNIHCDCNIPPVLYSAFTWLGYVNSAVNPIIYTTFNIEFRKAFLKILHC

SMILES	Potency	activation
CCCCC(CC)CO[P+](=O)OCC(CC)CCCC (stereo not drawn)	inactive	–
O=C(Cl)Oc1ccccc1	inactive	–
O=[P+](Oc1ccccc1)Oc1ccccc1	inactive	–
CCNC(C)Cc1ccc2c(c1)OCO2 (stereo not drawn)	inactive	–
CCC(C)(OOC(C)(C)C)OOC(C)(C)C	–	inactive: -2.93% [at 19 µM]
O=[As]c1ccccc1 (stereo not drawn)	active: 37.1 µM	–
NC(=O)Nc1ccc([As](=O)(O)O)cc1	inactive	–
O=P(Cl)(Oc1ccccc1)Oc1ccccc1	inactive	–
CCOC(=O)Cl	inactive	–
Cc1cc([N+](=O)[O-])c(O)c([N+](=O)[O-])c1	inactive	–
O=[N+]([O-])c1ccc([N+](=O)[O-])cc1	inactive	–
COC(=O)Cl	inactive	–
O=P(Cl)(Cl)c1ccccc1	inactive	–
O=[N+]([O-])c1ccc(S(=O)(=O)O)c([N+](=O)[O-])c1	inactive	–
CN(C(=O)Cc1ccc(Cl)c(Cl)c1)[C@H]1CC[C@@]2(CCCO2)C[C@@H]1N1CCCC1	inactive	–
CN(N=O)C(=N)N[N+](=O)[O-]	inactive	–
ClP(Cl)c1ccccc1	inactive	–
CCOP(=S)(CC)Sc1ccccc1 (stereo not drawn)	inactive	–
O=C(Cl)OCCOC(=O)Cl	inactive	–
CC(C)CCCCCCCOP(OCCCCCCCC(C)C)Oc1ccccc1	inactive	–
CCCCO[P+](=O)OCCCC	inactive	–
O=[p+]1oc2ccccc2c2ccccc21 (stereo not drawn)	inactive	–
CCCCOP(OCCCC)OCCCC	inactive	–
CC(C)OP(=S)(OC(C)C)SCCNS(=O)(=O)c1ccccc1	inactive	–
CCCCCCCCCCCCCC[P+](CCCCCC)(CCCCCC)CCCCCC	inactive	–
CN(C(=O)Cc1ccccc1)[C@H]1CC[C@@]2(CCCO2)C[C@@H]1N1CCCC1	inactive	–
COP(=S)(Cl)OC	inactive	–
N#CSc1ccc([N+](=O)[O-])cc1[N+](=O)[O-]	inactive	–
